Only a part is listed here, and it is no random draw. Active and inactive are the calls of the source.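 The calls were made as follows: active = inhibition above the mean of all tested compounds plus 3 SD (cut at about 24% in these data); inactive = the rest.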

Amino acid sequences for entries named in this document (tags omitted). A change or cut given only in a name is not applied to a line headed by its entry.
UniProt P68402: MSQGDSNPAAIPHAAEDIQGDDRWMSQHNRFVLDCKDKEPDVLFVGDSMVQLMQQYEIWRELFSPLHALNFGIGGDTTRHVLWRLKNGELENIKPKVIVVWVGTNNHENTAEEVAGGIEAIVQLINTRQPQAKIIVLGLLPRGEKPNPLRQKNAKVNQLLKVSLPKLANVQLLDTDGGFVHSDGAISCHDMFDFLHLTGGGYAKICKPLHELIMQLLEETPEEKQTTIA

The target of the assay is Platelet-activating factor acetylhydrolase IB subunit alpha2 (Homo sapiens) (UniProt P68402). The experiment in a line: inhibition of PAF acetylhydrolase 1b subunit 2 – biochemical, fluorescence polarization, human, primary screen (AID 492953).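 Also: 0% = enzyme with DMSO and 100% = wells lacking PAFAH1B2.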 Particulars: recombinant PAFAH1B2, FP-rhodamine activity probe, at 3.39 µM, stronger effect = higher value. (In general: Polarisation of emitted light reports the rotation of a fluorescent probe.)
On to `CCN(N=Nc1nonc1N)c1nonc1N`, for which the inhibition is inactive: 1.37%.

`Nc1cccc2ccc([As](=O)(O)O)cc12`: the inhibition is inactive: 16%.

For `CCOP(=O)(Nc1ccccc1)OCC`, the inhibition is inactive: 2.11%.

With `Cc1cc(SC(NC(=O)c2ccc(F)cc2)C(Cl)(Cl)Cl)ncn1` (centres undefined), the inhibition was inactive: 8.19%.

With `CN(C(=O)Cc1ccc(Cl)c(Cl)c1)[C@H]1CCCC[C@@H]1N1CCCC1`, the inhibition was inactive: -8.48%.

Take `Cc1ccc(NP(=O)(Oc2ccccc2F)Oc2ccccc2F)nc1`: the inhibition was inactive: 9.65%.

With `O=C(O)c1ccccc1[As](=O)(O)O`, the inhibition is inactive: 0.96%.

In the case of `CC(=O)Nc1ccc([As](=O)(O)O)cc1`, the inhibition was inactive: 9.71%.

Take `CCCC1OP(N)(=O)OCC1CC` (centres undefined): the inhibition was inactive: 1.05%.

For the compound `O=P(Nc1nc2ccc(Cl)cc2s1)(c1ccccc1)c1ccccc1`, the inhibition is inactive: 5.44%.

As to `CC(C)CC(=O)NC(Sc1ccc(Cl)cc1)C(Cl)(Cl)Cl` (centres undefined), the inhibition was inactive: 3.23%.

As to `Nc1cc(N)c2nonc2c1[N+](=O)[O-]`, the inhibition was inactive: -1.04%.

With `Oc1ccccc1CNc1ccccn1`, the inhibition was inactive: 0.02%.

Take `O=C(NC(Sc1ccncn1)C(Cl)(Cl)Cl)c1ccccc1` (centres undefined): the inhibition was inactive: -1.97%.

On to `COc1ccccc1OP(=O)(Nc1ccc(C)cn1)Oc1ccccc1OC`, for which the inhibition is inactive: 0.99%.

As for `Clc1ccc(Cl)c(NC2=NCC(CBr)S2)c1` (centres undefined), the inhibition is inactive: 4.46%.

For `CN1CCCC(OC(=O)C(c2ccccc2)c2ccccc2)C1` (centres undefined), the inhibition is inactive: 2.33%.

Turning to `NC(=O)c1cc([N+](=O)[O-])cc([N+](=O)[O-])c1N`, the inhibition was inactive: -3.74%.

Consider `CN(C(=O)Cc1ccc(Cl)c(Cl)c1)[C@H]1CCCC[C@H]1N1CCCC1`, for which the inhibition is inactive: -4.59%.

As for `Cc1ccc(N/C(=N/P(=O)(N2CCOCC2)N2CCOCC2)N2CCOCC2)cc1`, the inhibition is inactive: -3.98%.

As for `CC(=O)Nc1ccc([As](=O)(O)O)c(O)c1`, the inhibition was inactive: 5.14%.

Take `CC(=O)Nc1ccc(Oc2c([N+](=O)[O-])cc([N+](=O)[O-])cc2[N+](=O)[O-])cc1`: the inhibition was inactive: 8.18%.

On to `N#C/C(=C\c1ccc(N(CCBr)CCBr)cc1)C(N)=O`, for which the inhibition is inactive: 11.3%.

Take `CC(=O)c1ccc(N2CC2c2ccncc2)cc1` (centres undefined): the inhibition is inactive: 2.2%.

With `COC(=O)C1(C)COP(=O)(NCc2ccccc2)OC1` (centres undefined), the inhibition was inactive: 2.44%.

Consider `Cc1ccccc1CN(C)C(=O)COC(=O)C(O)(c1ccccc1)c1ccccc1`, for which the inhibition was inactive: 3.83%.

With `C[C@@H]1C=CCP(=O)(Oc2ccccc2)O1` (some centres undefined), the inhibition was inactive: -3.19%.

`C[C@H]1OP(=O)(Oc2ccccc2)C[C@@H]2O[C@@H]21` (some centres undefined): the inhibition is inactive: 5.21%.

Take `CCc1cc(O)c([N+](=O)[O-])c(C)c1[N+](=O)[O-]`: the inhibition is inactive: 14.1%.

For the compound `CC(C)(C)C(=O)NC(Sc1ccccc1)C(Cl)(Cl)Cl` (centres undefined), the inhibition was inactive: 18.9%.

Regarding `O=P1(Nc2nc3ccc(Cl)cc3s2)COc2ccccc2O1` (centres undefined), the inhibition is inactive: 4.84%.

Turning to `CCOc1ccc(C2=NCC(CBr)S2)cc1` (centres undefined), the inhibition was inactive: 0.84%.

For the compound `Cc1ccccc1OP(=O)(Nc1ccccn1)Oc1ccccc1C`, the inhibition was inactive: -2.29%.

Regarding `CC(NC(=O)COC(=O)C(O)(c1ccccc1)c1ccccc1)c1ccccc1` (centres undefined), the inhibition is inactive: 9.21%.

Consider `CN(C)C(=O)Oc1noc2ccccc12`, for which the inhibition is inactive: 1.89%.

For `O=c1c2cc([N+](=O)[O-])ccc2[nH]c2c([N+](=O)[O-])cc([N+](=O)[O-])cc12`, the inhibition was active: 29.1%.

Turning to `COC(=O)c1cc2c(s1)N=C(c1ccccc1)N(C)P2(=O)N1CCOCC1` (centres undefined), the inhibition was inactive: 2.23%.

Consider `Cc1ccc(OP(=O)(Nc2ccccn2)Oc2ccc(C)cc2)cc1`, for which the inhibition was inactive: 0.16%.

Regarding `CC(=O)NC(SC(=S)N(CC(C)C)CC(C)C)C(Cl)(Cl)Cl` (centres undefined), the inhibition was inactive: 13.2%.

With `O=C(OC1CN2CCC1CC2)c1ccccc1` (centres undefined), the inhibition was inactive: 1.27%.

In the case of `CCC(=O)N1C2C3N(C(=O)CC)C1C1N(C(=O)CC)C(C(N1C(=O)CC)N3C(=O)CC)N2C(=O)CC`, the inhibition is inactive: -0.94%.

Take `O=P1(N(CCCl)CCCl)OCCC2CCCCN21` (centres undefined): the inhibition is inactive: 0.24%.

As to `O=C(NC1CCS(=O)(=O)C1)NP(=S)(Oc1ccccc1)Oc1ccccc1` (centres undefined), the inhibition is inactive: 14.5%.

Take `CCNC(=S)/N=C(\N)N[N+](=O)[O-]`: the inhibition was inactive: 5%.

On to `Nc1ccc([As](=O)(O)c2ccc([N+](=O)[O-])cc2)cc1`, for which the inhibition was inactive: 6.78%.

Turning to `C(Cc1nn[nH]n1)Cc1nn[nH]n1`, the inhibition is inactive: 5.16%.

For `O=C(OC1CN2CCC1CC2)c1cccc(Cl)c1` (centres undefined), the inhibition is inactive: 3.12%.

Regarding `O=[N+]([O-])c1ncn(CCn2cnc([N+](=O)[O-])n2)n1`, the inhibition was inactive: -0.97%.

For the compound `CC(=O)NC(SC(=S)N(C)C)C(Cl)(Cl)Cl` (centres undefined), the inhibition is inactive: 3.22%.

In the case of `O=[N+]([O-])c1ccc(O)c(/C=N/Nc2ccc([N+](=O)[O-])cc2[N+](=O)[O-])c1`, the inhibition is inactive: 3.72%.

On to `O=[As](O)(c1ccccc1)c1ccc(O)cc1`, for which the inhibition is inactive: -2.06%.

Consider `O=P(Nc1nc2ccccc2s1)(c1ccccc1)c1ccccc1`, for which the inhibition was inactive: 3.28%.

Turning to `C[C@H]1OP(=O)(Oc2ccccc2)[C@H](O)[C@H](O)[C@H]1N=[N+]=[N-]` (some centres undefined), the inhibition was inactive: -2.75%.

As for `COc1ccc(N)c([N+](=O)[O-])c1[N+](=O)[O-]`, the inhibition was inactive: -3.94%.

Turning to `CN(C)C1(CNC(=O)c2ccc(Cl)c(S(N)(=O)=O)c2)CCCCC1`, the inhibition was inactive: 3.86%.

`O=P(Nc1ccccn1)(c1ccc(Br)cc1)c1ccc(Br)cc1`: the inhibition is inactive: 0.7%.

Turning to `c1nnnn1CCn1cnnn1`, the inhibition is inactive: 1.46%.

Consider `O=P(Nc1nccs1)(c1ccccc1)c1ccccc1`, for which the inhibition was inactive: 8.14%.

For `CC(C)C(=O)NC(Sc1ccccc1)C(Cl)(Cl)Cl` (centres undefined), the inhibition was inactive: 0.86%.

What is called inhibition is the drop in the measured response relative to a control, in per cent.

The values above are taken from PubChem BioAssay AID492953 (The Scripps Research Institute Molecular Screening Center, 2010).
